Values quoted from earlier work as cited in patent publication US5447869A, “Method of detecting bitter or odorous substances and apparatus therefor” (Sogo Pharmaceutical Company Limited, priority 1987, dated 1995).
Where two headings read alike, the source gives them in different places.

Tested on: tadpole
Details: cited from earlier work

CCCO [1-propanol]
Potency (Table 3, tadpole, intensity of the anesthetic): 9.43 | Potency (Table 6, concentration ratio of aqueous solution, methanol as 1.00): 9.43
